Molecular target: T1, SF-1 LBD (Homo sapiens, UniProt Q13285)
T1 construct: SF-1 LBD (residues 218–461) in the pMSC7 vector; His-tag; made in house; host or cells: E. coli BL21 (pLysS)
Assay: Fluorescence polarization competition binding assay, SF-1 LBD
Conditions: displacement of 6N-FAM probe, 95% confidence intervals in square brackets
Description: Previous coregulator recruitment studies indicate that both RJW100 enantiomers bind LRH-1 and SF-1[34], but ligand binding affinities have not been measured. To determine binding affinities, we utilized a fluorescence polarization-based, equilibrium ligand binding assay in which a fluorescein-labelled probe is displaced by unlabelled competing ligands. Differences in probe affinity for LRH-1 and SF-1 were calculated prior to the competition assays and are accounted for in the equation for fitting the competition data (details in the methods section and our previous publication)[39]. […]. However, magnitude of the affinity difference is fairly small and may not be biologically important. […]. Assays utilized a fluorescein-labelled probe (6 N-FAM) that is displaced by unlabelled competitors. Competition assays were conducted in opaque, black 384 assay plates using a combination of 10 nM 6 N-FAM with 5 nM LRH-1 ligand binding domain (LBD) or 30 nM 6 N-FAM with 25 nM SF-1 LBD (these concentrations were determined through optimization steps in our previous work)[39]. […] FP was measured on a BioTek Neo plate reader. […]
Significance of differences in Ki values from parallel experiments was determined using two-tailed, paired t-tests, with p < 0.05 considered statistically significant.

By UniProt entry, the sequences of proteins in these tests, tags left out. Residues count along the entry.
UniProt Q13285, 218-461: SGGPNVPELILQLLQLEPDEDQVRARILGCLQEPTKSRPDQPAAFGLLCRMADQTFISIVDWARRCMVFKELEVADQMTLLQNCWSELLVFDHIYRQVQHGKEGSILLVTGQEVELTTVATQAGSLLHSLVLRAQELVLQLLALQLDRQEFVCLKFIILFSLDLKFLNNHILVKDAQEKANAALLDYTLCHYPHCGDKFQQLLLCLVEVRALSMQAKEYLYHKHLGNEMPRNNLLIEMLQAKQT

| Ki | Compound |
| --- | --- |
| 30 µM | C=C(c1ccccc1)[C@]12CC[C@H](O)[C@H]1CC(CCCCCC)=C2c1ccccc1 [SS-RJW100, (1S,5S,6S)-3-Hexyl-6-hydroxy-2-phenyl-1-(phenylvinyl)-bicyclo[3.3.0]oct-2-ene] |
| 13 µM | C=C(c1ccccc1)[C@@]12CC[C@@H](O)[C@@H]1CC(CCCCCC)=C2c1ccccc1 [RR-RJW100, (1R,5R,6R)-3-Hexyl-6-hydroxy-2-phenyl-1-(phenylvinyl)-bicyclo[3.3.0]oct-2-ene] |
